In one assay the target is Bovine type 1 trypsin (Bos taurus, UniProt P00760). Description: Trypsin-catalyzed hydrolysis of chromogenic substrate, Ki. The class given is biochemical. The following applies: read-out: Trp Ki, 3.2 U/ml trypsin, 0.1-0.3 mM Spectrozyme TRY.
Assay [1] deals with T1, human alpha-thrombin (Homo sapiens, UniProt P00734). Description: Thrombin-catalyzed hydrolysis of chromogenic substrate, Michaelis-Menten Ki. The class given is biochemical. The following applies: read-out: Thr Ki, 1 nM thrombin, 5-100 μM Spectozyme TH, 37° C., pH 7.4, Michaelis-Menten kinetics.
Assay [2] has as its target T1, human alpha-thrombin. Description: Slow, tight-binding kinetics with thrombin (Ki-slow). The following applies: read-out: Thr Ki -slow; 0.1 nM thrombin, 50 μM Spectozyme TH, 25° C., 4 h; tested form: TFA hydrate.
Where [3] appears, read: tested form: di-TFA sesquihydrate.

The chains behind the UniProt entries cited, without tags or fusion partners. Residues count along the entry.
UniProt P00760, 24-246 limits assumed: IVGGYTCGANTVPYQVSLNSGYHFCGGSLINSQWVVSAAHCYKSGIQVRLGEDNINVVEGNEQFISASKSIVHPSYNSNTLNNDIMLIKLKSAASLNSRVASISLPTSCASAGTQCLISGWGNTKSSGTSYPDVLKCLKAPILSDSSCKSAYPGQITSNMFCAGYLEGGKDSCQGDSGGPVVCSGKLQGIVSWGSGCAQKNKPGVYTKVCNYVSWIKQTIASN

Broadly, the Ki is the dissociation constant of the complex between target and ligand, obtained from inhibition or displacement.

Read-outs that look alike come from different tables or passages of the source.

`N=C(N)NCCC[C@@H]1NC(=O)[C@@H]2CCCN2C(=O)CCCCCNC(=O)[C@H](CCC(=O)O)NC(=O)C1=O`: the Ki on Bovine type 1 trypsin (tested form: TFA hydrate) is 620 nM; at human alpha-thrombin [1] (tested form: TFA hydrate), 85900 nM. In the same order, the values of `N=C(N)NCCC[C@@H]1NC(=O)[C@@H]2CCCN2C(=O)[C@@H](CCc2ccccc2)NC(=O)CCCCCCCNC(=O)C1=O` are 45 nM and 14 nM.

Take `N=C(N)NCCC[C@@H]1NC(=O)[C@@H]2CCCN2C(=O)[C@@H](Cc2ccccc2)NC(=O)CCCCCNC(=O)[C@H](Cc2ccccc2)NC(=O)C1=O`: the Ki at Bovine type 1 trypsin (tested form: TFA hydrate) was 17 nM. Turning to `N=C(N)NCCC[C@@H]1NC(=O)[C@@H]2CCCN2C(=O)[C@@H](Cc2ccccc2)NC(=O)CCCCCNC(=O)[C@@H](Cc2ccccc2)NC(=O)C1=O`, the Ki at Bovine type 1 trypsin (tested form: TFA) came to 4 nM. `N=C(N)NCCC[C@@H]1NC(=O)[C@@H]2CCCN2C(=O)[C@@H](Cc2ccccc2)NC(=O)CCCCCNC(=O)C1=O`: the inhibitory constant (Ki) at Bovine type 1 trypsin (setting [3]) was determined as 450 nM; on human alpha-thrombin [1] (setting [3]), 350 nM. Take `N=C(N)NCCC[C@@H]1NC(=O)[C@@H]2CCCN2C(=O)[C@@H](c2ccccc2)NC(=O)CCCCCCCNC(=O)C1=O`: the figures for the Ki on Bovine type 1 trypsin (tested form: TFA hydrate) and at human alpha-thrombin [1] (tested form: TFA hydrate) were 39 nM and 200 nM, respectively. For the compound `N=C(N)NCCC[C@@H]1NC(=O)[C@@H]2CCCN2C(=O)[C@@H](Cc2ccccc2)NC(=O)CCCCCCNC(=O)C1=O`, the Ki on human alpha-thrombin [2] amounted to 492 nM. As to `N=C(N)NCCC[C@@H]1NC(=O)[C@@H]2CCCN2C(=O)[C@@H](C(c2ccccc2)c2ccccc2)NC(=O)CCCCCNC(=O)[C@@H](Cc2ccccc2)NC(=O)C1=O`, the Ki came to 5.3 nM on Bovine type 1 trypsin (tested form: TFA hydrate), 1.36 nM at human alpha-thrombin [2] and 19 nM at human alpha-thrombin [1] (tested form: TFA hydrate). Turning to `N=C(N)NCCC[C@@H]1NC(=O)[C@@H]2CCCN2C(=O)CCCCCCCNC(=O)[C@@H](Cc2ccccc2)NC(=O)C1=O`, the Ki at Bovine type 1 trypsin (tested form: TFA hydrate) stood at 11 nM; at human alpha-thrombin [1] (tested form: TFA hydrate), 1610 nM. For `N=C(N)NCCC[C@@H]1NC(=O)[C@@H]2CCCN2C(=O)[C@@H](Cc2ccccc2)NC(=O)CCCCCCCNC(=O)C1=O`, in that order: 15 nM and 21 nM. For `N=C(N)NCCC[C@@H]1NC(=O)[C@@H]2CCCN2C(=O)[C@@H](Cc2ccccc2)NC(=O)CCCCNCCNC(=O)C1=O`, in that order: 2.9 nM and 18 nM. With `CO[C@H]1C[C@H]2C(=O)N[C@@H](CCCNC(=N)N)C(=O)C(=O)NCCCCCCCC(=O)N[C@H](Cc3ccccc3)C(=O)N2C1`, at human alpha-thrombin [1] (tested form: TFA hydrate), the Ki worked out at 160 nM. As for `N=C(N)NCCC[C@@H]1NC(=O)[C@@H]2CCCN2C(=O)CCCCCNC(=O)[C@@H](Cc2ccccc2)NC(=O)C1=O`, the Ki at Bovine type 1 trypsin (tested form: TFA hydrate) turned out to be 26 nM; at human alpha-thrombin [1] (tested form: TFA hydrate), 150 nM. In the same order, the values of `N=C(N)NCCC[C@@H]1NC(=O)[C@@H]2CCCN2C(=O)[C@@H](Cc2ccccc2)NCCCCCCCCNC(=O)C1=O` are 1.5 nM and 2.3 nM.

The values are drawn from patent publication US5888971A, “Macrocyclic peptides useful in the treatment of thrombin related disorders” (Ortho Pharmaceutical Corporation, Inc., priority 1996, dated 1999).
